By UniProt entry, the sequences of proteins in these tests, tags left out. Residues count along the entry.
UniProt P22303, 32-617 isoform P22303-2 limits assumed: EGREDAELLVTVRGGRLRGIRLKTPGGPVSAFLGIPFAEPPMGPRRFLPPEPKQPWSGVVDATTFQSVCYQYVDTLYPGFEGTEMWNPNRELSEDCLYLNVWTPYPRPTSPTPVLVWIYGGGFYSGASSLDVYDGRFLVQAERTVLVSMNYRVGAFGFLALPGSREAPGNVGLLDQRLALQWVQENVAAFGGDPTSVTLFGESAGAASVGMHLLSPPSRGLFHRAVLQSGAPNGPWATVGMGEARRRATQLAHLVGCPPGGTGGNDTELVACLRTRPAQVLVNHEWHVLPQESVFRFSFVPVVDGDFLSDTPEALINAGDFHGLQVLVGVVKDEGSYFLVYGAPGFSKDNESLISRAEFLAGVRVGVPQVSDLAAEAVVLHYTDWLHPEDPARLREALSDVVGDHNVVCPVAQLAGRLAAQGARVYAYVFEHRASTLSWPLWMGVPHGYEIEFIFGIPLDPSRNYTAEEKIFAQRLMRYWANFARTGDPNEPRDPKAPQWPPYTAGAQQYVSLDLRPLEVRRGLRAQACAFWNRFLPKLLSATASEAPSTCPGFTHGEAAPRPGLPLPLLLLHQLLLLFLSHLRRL

In US20050182044A1, “Combinatorial therapy with an acetylcholinesterase inhibitor and (3aR)-1,3a,8-trimethyl-1,2,3,3a,8,8a-hexahydropyrrolo[2,3,-b]indol-5-yl phenylcarbamate” (priority 2004, published 2005):

Assays:
AChE = AChE (Homo sapiens, UniProt P22303); experiment: biochemical; conditions: IC50 Value AChE, RBC/plasma
[1] = target: T1, acetylcholinesterase (AChE) (Homo sapiens, UniProt P22303); conditions: human erythrocyte AChE, al-Jafari et al. (1998) per footnote; read-out: IC50 for AChE inhibition; cited from earlier work
T1 construct: host or cells: human erythrocytes

## CN1CC[C@@]2(C)c3cc(OC(=O)Nc4ccccc4)ccc3N(C)C12 (single isomer, unassigned; (-)) [(−)-phenserine]
AChE
  IC50: 22 ± 1 nM
[1]
  IC50: ~22 nM
